The numbers were not newly measured in patent publication US20190185544A1, “COMPOSITIONS AND METHODS OF MODULATING ABETA PROTEIN” (University of South Florida, priority 2016, published 2019), which cites them from elsewhere.

The target of the data set is LDLR (Homo sapiens, UniProt P01130). The following applies: cited from earlier work.

For the substance “ApoE2: human recombinant apolipoprotein E2 protein (BioVision)”, the “LDLR binding activity compared with ApoE3” value is on record as 2%.
